Data: US8426202B2, “Cell culture medium” (Cellca GmbH, priority 2005, dated 2013)
“And” between values parts separate entries of the source, which are not always exact repeats. Equal values may be shown once. Read-outs that look alike come from different tables or passages of the source.

Legend:
[1] = system: CHO cell line that expresses an antibody; settings: fed-batch, basal medium 4 mM glutamine, feed with 3 g/l Ala-Gln and 3 g/l Gly-Gln, substance 0.5-1 g/l
[2] = system: CHO cell line that expresses an antibody; settings: fed-batch, day 5; glutamine-free basal and feed media; substance 0.5-1 g/l
[3] = system: CHO cell line that expresses an antibody; assay: Fed-batch experiment with the substances according to the invention (Example 2, Table 2); type: cell-based, Chinese hamster
Excerpt: Feed took place at regular intervals.

O=C(O)CCC(=O)C(=O)O [α-Keto-glutarate]
Total Cell Density TCD ([1]; day 0): 1.1 E5/ml | Viable Cell Density (VCD) ([1]; day 0): 1.0 E5/ml | Total Cell Density TCD ([1]; day 3): 7.6 E5/ml | Viable Cell Density (VCD) ([1]; day 3): 7.1 E5/ml | Total Cell Density TCD ([1]; day 5): 40.1 E5/ml | Viable Cell Density (VCD) ([1]; day 5): 38.5 E5/ml | Total Cell Density TCD ([1]; day 7): 36.0 E5/ml | Viable Cell Density (VCD) ([1]; day 7): 30.2 E5/ml | Total Cell Density TCD ([1]; day 9): 31.2 E5/ml | Viable Cell Density (VCD) ([1]; day 9): 21.0 E5/ml | VCD [2]: 104 % of control | Total Cell Density TCD ([3]; day 0, fed-batch): 1.5 E5/ml | Viable Cell Density (VCD) ([3]; day 0, fed-batch): 1.37 E5/ml | Total Cell Density TCD ([3]; day 2, fed-batch): 3.9 E5/ml and 3.4 E5/ml | Viable Cell Density (VCD) ([3]; day 2, fed-batch): 3.8 E5/ml and 3.3 E5/ml | Total Cell Density TCD ([3]; day 5, fed-batch): 11.8 E5/ml | Viable Cell Density (VCD) ([3]; day 5, fed-batch): 11.4 E5/ml | Total Cell Density TCD ([3]; day 8, fed-batch): 49.4 E5/ml | Viable Cell Density (VCD) ([3]; day 8, fed-batch): 46.9 E5/ml
